In this experiment the test system is RBL-2H3 cells. Put plainly: Antigen (DNP-BSA)-induced β-hexosaminidase release (degranulation) in IgE-sensitized RBL-2H3 cells. In kind it is cell-based, rat. The source says: The rat basophilic cell line RBL-2H3 is an art recognized model for studying the activation of metachromatic cells through FcεRI (Oliver et al., “Signal transduction and cellular response in RBL-2H3 mast cells,” Prog. Allergy 42:185-245, 1988).
The below experiments used the rat basophilic cells RBL-2H3 commercially available from the American Type Culture Collection (ATCC; Manassas, Va.) under accession number CRL-2256. RBL-2H3 cells were passively sensitized with mouse IgE anti-dinitrophenyl conjugated to bovine serum albumin (DNP-BSA) monoclonal antibody for 22 hours, and then stimulated with DNP-BSA (antigen) to induce cell degranulation (FIG. 1).

The structures appear in SMILES notation.

With `Cc1ccc(-c2nn(C(C)(C)C)c3ncnc(N)c23)cc1` [PP1], the “blockade of IgE-dependent activation and degranulation of metachromatic cells, agent alone” value is recorded as “potent blocker”.

The values are drawn from patent publication US20090264388A1, “Compounds and Methods of Treating Disorders Associated With Activation of Metachromatic Cells” (Valorisation Recherche HSCM, Limited Partnership, priority 2006, published 2009).
